Measurements taken from PMC9394386 (Cancer Discovery, 2022).

Tests used:
[1] = target: Recombinant mouse PD-L1 with His-tag (mouse, UniProt Q9EP73); test: AlphaScreen or HTRF
[2] = target: T1, Recombinant human PD-L2 with His-tag (human, UniProt Q9BQ51); test: AlphaScreen or HTRF
T1 sequence: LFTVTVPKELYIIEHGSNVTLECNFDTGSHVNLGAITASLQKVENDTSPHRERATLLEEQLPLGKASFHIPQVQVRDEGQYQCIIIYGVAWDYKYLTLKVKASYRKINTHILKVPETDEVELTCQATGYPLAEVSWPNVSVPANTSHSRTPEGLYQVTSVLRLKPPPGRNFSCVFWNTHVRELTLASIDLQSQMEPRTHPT

binding result [1]: binds
binding result [2]: binds
B1: Recombinant human PD-1 protein with an Fc tag (Fc fusion)
chain: LDSPDRPWNPPTFSPALLVVTEGDNATFTCSFSNTSESFVLNWYRMSPSNQTDKLAAFPEDRSQPGQDCRFRVTQLPNGRDFHMSVVRARRNDSGTYLCGAISLAPKAQIKESLRAELRVTERRAEVPTAHPSPSPRPAGQFQTLV
